Biological target: AChE (Rattus norvegicus, UniProt P37136)
Settings: tested form: 2 fumarate, 1.5H2O; for IC50: read-out: AchE IC50

Protein sequences, listed by entry. Tags and fused reporters are not part of them. Residues count along the entry.
UniProt P37136, 32-614 limits assumed: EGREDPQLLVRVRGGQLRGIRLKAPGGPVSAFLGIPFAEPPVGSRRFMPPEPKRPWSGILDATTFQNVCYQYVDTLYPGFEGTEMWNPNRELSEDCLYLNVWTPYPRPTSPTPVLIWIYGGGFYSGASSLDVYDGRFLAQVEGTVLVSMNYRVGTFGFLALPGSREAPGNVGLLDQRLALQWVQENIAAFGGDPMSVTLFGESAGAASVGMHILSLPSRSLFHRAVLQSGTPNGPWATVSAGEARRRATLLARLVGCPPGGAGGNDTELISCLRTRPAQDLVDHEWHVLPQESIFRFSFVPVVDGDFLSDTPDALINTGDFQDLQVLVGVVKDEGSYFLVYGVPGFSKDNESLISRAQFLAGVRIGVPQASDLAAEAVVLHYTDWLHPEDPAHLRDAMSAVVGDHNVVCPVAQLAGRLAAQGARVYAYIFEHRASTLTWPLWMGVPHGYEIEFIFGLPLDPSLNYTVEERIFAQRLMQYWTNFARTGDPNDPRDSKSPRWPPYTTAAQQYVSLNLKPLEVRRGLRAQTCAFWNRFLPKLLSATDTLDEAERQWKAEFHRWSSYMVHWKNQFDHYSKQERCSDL

SMILES | IC50 [µM] | Selectivity for AChE
CC1(C)Cc2[nH]c(=O)ccc2C(NCCCCCCCCNC2CC(C)(C)Cc3[nH]c(=O)ccc32)C1 (racemic) | 22.3 | 4
Cn1c2c(ccc1=O)C(NCCCCCCCCCCCCNC1CCCc3c1ccc(=O)n3C)CCC2 (racemic) | 0.355 | 210

— US6472408B1, “Dimeric compounds” (priority 2000, dated 2002)
